This passage reports Ki results from patent US20050215470A1 (Amgen, published 2005).

T1: human bradykinin B1 receptor (human, UniProt P46663 1-353)
T1 construct: whole, on cells; For the IC50 values the receptor was stably expressed in a CHO D-/hB1/Aequorin cell line; also called hB1
T1 sequence (looked up): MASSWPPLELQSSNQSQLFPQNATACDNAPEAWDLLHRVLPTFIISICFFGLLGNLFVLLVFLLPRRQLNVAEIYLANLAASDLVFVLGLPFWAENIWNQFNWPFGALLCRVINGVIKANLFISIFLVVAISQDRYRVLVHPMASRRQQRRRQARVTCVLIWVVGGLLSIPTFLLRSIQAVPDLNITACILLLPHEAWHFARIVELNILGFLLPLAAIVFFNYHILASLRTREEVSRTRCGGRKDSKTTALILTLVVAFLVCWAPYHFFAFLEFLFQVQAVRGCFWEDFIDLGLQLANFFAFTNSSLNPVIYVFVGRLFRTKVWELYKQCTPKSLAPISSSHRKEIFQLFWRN

B1: MeO-20K-Maleimide PEG conjugate of SEQ ID NOS: 29 + 42 (peptide)
peptide: CGGGGGKKRPGFSPLGGGGGKKRPPGFSPL
modifications: 20K methoxy-PEG coupled through maleimide to the thiol of the N-terminal Cys 1 (one-pot process of Scheme 4)
notes: Built as one tandem chain X^1-Y^1 after the column head '(X^1) - (Y^1)0 or 1'

Non-standard residues stand in square brackets, D forms with d. No end group written: not given here. Tetrakis‑20K‑SPA PEG arm = one arm of a 20 kDa four-arm PEG succinimidyl propionate (Tetrakis-20K-SPA); d2Nal = N[C@H](Cc1ccc2ccccc2c1)C(=O)O; Gly(cPent) = N[C@H](C(=O)O)C1CCCC1; Hyp = O=C(O)[C@@H]1C[C@@H](O)CN1; dTic = O=C(O)[C@H]1Cc2ccccc2CN1

For this test, the target named is T1, human bradykinin B1 receptor. As to the kind of experiment: binding affinity (Ki) at the human B1 receptor; assay format not described.
As usually defined, the Ki is the dissociation constant of the complex between target and ligand, obtained from inhibition or displacement. A higher Ki goes with lower affinity. [dK][d2Nal]RP[Hyp]G[Gly(cPent)]S[dTic][Gly(cPent)] [SEQ ID NO: 49] returned an inhibitory constant (Ki) of 0.77 nM.
Under B1 stands 22 nM; under K(Tetrakis‑20K‑SPA PEG arm)KRP[Hyp]G[Gly(cPent)]S[dTic][Gly(cPent)] (also: 4 peptides per four-arm 20K PEG), 0.14 nM; under KKRP[Hyp]G[Gly(cPent)]S[dTic][Gly(cPent)] (not fully specified (N-terminus); also: 4 peptides per four-arm 20K PEG), 0.14 nM.
